Earlier results as cited in publication PMC7297817, “Pharmacological Characterization of a Betaine/GABA Transporter 1 (BGT1) Inhibitor Displaying an Unusual Biphasic Inhibition Profile and Anti-seizure Effects” (Neurochemical Research, 2020).

Tests used:
Settings in all cases: cited from earlier work
mGAT3 = target: T1, mGAT3 (Mus musculus, UniProt P31650); set-up: method as in PMID 25882526
T1 construct: expressed in transfected cells
T1 sequence (P31650 1-627): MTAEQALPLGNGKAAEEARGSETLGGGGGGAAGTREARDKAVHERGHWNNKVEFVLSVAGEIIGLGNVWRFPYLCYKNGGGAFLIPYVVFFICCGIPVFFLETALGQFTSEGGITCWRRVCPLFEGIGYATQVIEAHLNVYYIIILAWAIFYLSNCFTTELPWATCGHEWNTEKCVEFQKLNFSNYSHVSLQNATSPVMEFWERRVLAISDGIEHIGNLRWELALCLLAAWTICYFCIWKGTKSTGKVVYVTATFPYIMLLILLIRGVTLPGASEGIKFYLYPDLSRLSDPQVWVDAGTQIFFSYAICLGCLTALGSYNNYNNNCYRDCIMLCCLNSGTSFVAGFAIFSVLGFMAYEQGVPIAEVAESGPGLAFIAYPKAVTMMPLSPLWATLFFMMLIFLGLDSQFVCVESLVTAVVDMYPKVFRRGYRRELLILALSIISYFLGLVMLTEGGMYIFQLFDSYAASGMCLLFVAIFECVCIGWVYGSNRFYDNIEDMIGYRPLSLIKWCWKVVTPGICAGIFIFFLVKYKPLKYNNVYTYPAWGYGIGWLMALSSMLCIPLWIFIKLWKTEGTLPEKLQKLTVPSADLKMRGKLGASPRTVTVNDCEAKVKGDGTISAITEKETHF

mBGT1 = target: T2, mBGT1 (Mus musculus, UniProt P31651)
T2 sequence (P31651 1-614): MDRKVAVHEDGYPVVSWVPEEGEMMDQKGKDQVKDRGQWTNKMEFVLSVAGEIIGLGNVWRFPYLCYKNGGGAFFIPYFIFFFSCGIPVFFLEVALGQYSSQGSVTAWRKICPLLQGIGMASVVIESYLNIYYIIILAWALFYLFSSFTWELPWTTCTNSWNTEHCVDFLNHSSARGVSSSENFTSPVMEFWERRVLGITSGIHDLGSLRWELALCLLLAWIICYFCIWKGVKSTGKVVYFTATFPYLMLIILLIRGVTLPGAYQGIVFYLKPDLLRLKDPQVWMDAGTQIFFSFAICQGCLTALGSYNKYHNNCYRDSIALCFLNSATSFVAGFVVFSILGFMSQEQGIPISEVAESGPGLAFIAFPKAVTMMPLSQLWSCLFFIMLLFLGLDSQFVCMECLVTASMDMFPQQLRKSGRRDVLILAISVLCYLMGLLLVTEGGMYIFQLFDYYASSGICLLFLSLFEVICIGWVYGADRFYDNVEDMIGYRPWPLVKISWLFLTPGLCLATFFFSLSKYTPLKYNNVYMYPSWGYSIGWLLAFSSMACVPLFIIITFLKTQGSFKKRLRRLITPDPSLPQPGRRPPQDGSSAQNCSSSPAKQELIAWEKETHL

mGAT2 = target: T3, mGAT2 (Mus musculus, UniProt P31649); set-up: method as in PMID 25882526
T3 construct: expressed in transfected cells
T3 sequence (P31649 1-602): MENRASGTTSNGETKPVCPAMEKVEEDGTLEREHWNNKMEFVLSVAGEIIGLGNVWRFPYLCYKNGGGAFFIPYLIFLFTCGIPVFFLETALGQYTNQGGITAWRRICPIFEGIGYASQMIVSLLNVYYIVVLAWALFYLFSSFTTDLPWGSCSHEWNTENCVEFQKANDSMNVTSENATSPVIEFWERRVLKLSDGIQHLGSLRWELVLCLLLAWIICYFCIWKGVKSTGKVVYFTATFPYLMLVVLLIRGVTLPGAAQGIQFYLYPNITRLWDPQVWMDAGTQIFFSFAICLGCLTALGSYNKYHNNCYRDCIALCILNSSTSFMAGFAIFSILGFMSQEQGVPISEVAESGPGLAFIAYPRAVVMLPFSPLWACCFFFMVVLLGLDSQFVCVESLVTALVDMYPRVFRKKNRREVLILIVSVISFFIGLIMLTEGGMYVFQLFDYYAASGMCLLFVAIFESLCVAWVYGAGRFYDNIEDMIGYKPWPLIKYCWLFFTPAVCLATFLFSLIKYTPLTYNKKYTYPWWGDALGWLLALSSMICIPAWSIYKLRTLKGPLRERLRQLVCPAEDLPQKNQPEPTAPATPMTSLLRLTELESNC

mGAT1 = target: T4, mGAT1 (Mus musculus, UniProt P31648); set-up: method as in PMID 25882526
T4 construct: expressed in transfected cells

For `Cc1ccsc1C(=CCCN(C)[C@H]1CCCC[C@H]1C(=O)O)c1sccc1C` [SBV2-114, (1R,2S)-2-((4,4-bis(3-methylthiophen-2-yl)but-3-en-yl)(methyl)amino)cyclohexanecarboxylic acid], the “reduced inhibitory potency at mGAT3 relative to mBGT1” value (mGAT3) is given as ~13 times, the “selectivity for BGT1 over the other GAT subtypes” value (mBGT1) is given as > 13 fold and the “reduced inhibitory potency at mGAT2 relative to mBGT1” value (mGAT2) is given as ~43 times. For the same molecule, the “reduced inhibitory potency at mGAT1 relative to mBGT1” value (mGAT1) was “about 26 times”.
